The series concerns human red blood cells (hRBC). Briefly: Hemolysis assay on human red blood cells. The class given is cell-based. The note with it: human red blood cells in 10 mM phosphate buffer saline, pH 7.4, 25 °C. The source says: Synthesis and bioactivity testing. We prepared the 33 selected peptides, as well as the reference ACP LL‐III, by semi‐automated high‐temperature Fmoc solid‐phase peptide synthesis and obtained pure samples by preparative HPLC. All peptides were well‐behaved in terms of aqueous solubility, in line with the presence of two to seven cationic residues (lysine or arginine) in each sequence (Table 1). […]. We performed full IC50 determination for active sequences under the same conditions and similarly profiled HEK293 cells as a model for non‐cancer cells. Finally, we determined peptide concentrations causing 50 % hemolysis (HC50) on human red blood cells (hRBC) by serial 2‐fold dilution.
Hemolysis assay. Compounds were subjected to a hemolysis assay to assess the hemolytic effect on human red blood cells (hRBCs). […]. Controls on each plate included a blank medium control (PBS 100 μL) and a hemolytic activity control (0.1 % Triton^TM X‐100). 100 μL of hRBC suspension was incubated with 100 μL of each sample in PBS in V‐shape 96‐well plate. […]. Hemolysis was measured by analyzing the absorbance of free hemoglobin leaked out of compromised in the supernatants at 540 nm with a plate reader (Tecan instrument Infinite M1000). The percentage of hemolysis at each concentration was detected and HC50 was determined.

Bounds are passed on as bounds.

With anwkkwigkviklvk [DB1], the “Hemolysis HC50 hRBC” value is more than 200 µM.
